Test: Solubility (physical properties)
Type: physicochemical
Details: qualitative, in words

For 6-deoxy-D-galactose-monophosphoric acid, the Solubility was “Soluble in water, alkaline solutions, acid solutions, and various buffer solutions. Hardly soluble in organic solvents”.

From patent US5441932A, “Sugar compounds for inhibition of the biosynthesis of sugar chains containing sialic acid” (priority 1992, dated 1995)
